We go through four compounds from ChEMBL document CHEMBL1148605, “Synthesis and preliminary in vitro investigation of bivalent ligands containing homo- and heterodimeric pharmacophores at mu, delta, and kappa opioid receptors” (J Med Chem, 2006).

Protein sequences, listed by entry. Tags and fused reporters are not part of them. Lines headed by an entry give the natural chain unless they say otherwise; changes in a name come on top.
UniProt P41145: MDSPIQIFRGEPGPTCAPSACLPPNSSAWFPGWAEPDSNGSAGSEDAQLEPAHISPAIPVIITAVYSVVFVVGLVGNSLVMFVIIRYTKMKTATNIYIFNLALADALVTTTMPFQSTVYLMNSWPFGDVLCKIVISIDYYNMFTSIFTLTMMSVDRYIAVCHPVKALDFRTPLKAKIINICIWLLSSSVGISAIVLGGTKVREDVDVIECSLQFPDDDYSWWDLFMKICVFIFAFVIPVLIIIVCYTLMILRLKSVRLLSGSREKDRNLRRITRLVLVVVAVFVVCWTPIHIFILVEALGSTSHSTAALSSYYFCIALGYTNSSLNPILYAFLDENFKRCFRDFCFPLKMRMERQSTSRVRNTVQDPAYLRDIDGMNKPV
UniProt P35372, whole entry: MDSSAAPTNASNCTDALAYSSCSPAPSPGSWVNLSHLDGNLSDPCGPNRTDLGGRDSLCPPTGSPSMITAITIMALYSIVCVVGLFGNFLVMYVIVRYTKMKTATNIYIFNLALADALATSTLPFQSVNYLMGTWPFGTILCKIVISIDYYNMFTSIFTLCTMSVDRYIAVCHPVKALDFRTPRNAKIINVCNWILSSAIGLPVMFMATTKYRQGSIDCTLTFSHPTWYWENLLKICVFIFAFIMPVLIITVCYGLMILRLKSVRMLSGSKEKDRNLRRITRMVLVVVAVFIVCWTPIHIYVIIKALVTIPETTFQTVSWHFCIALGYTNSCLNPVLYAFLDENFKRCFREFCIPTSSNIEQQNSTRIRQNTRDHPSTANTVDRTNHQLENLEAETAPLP

In assay [1] the target is T1, Kappa-type opioid receptor (Homo sapiens, UniProt P41145). Briefly: biochemical. The class given is cell-based, CHO.
The target of assay [2] is T1, Kappa-type opioid receptor. The experiment in a line: Functional activity at human kappa opioid receptor expressed CHO cells by [35S]GTPgammaS binding assay. The following applies: filed as agonist. The assay is classed as cell-based. The method, boiled down: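 Membranes from CHO cells stably expressing human κ receptor (15 µg protein/tube), 12 compound concentrations, 60 min at 30 °C in Tris-HCl/MgCl2/NaCl/EGTA buffer pH 7.4 with 3 µM GDP and […] [35S]GTPγS. Filtration count, expressed as % stimulation over basal, giving Emax and EC50. […] At least 3 experiments in triplicate.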

Assay [3] has as its target T2, Mu-type opioid receptor (Homo sapiens, UniProt P35372). The experiment in a line: Activity at human mu opioid receptor expressed in CHO cells by [35S]GTP-gamma-S binding assay. The assay is classed as functional, cell-based.
Assay [4] addresses T2, Mu-type opioid receptor. The experiment in a line: biochemical. The class given is cell-based, CHO.

The structures appear in SMILES notation.

Turning to `Oc1ccc2c(c1)[C@]13CCCCC1[C@H](C2)N(CC1CC1)CC3` (single isomer, unassigned; (+)), the Ki in assay [1] worked out at 480 nM.
For `Oc1ccc2c(c1)[C@@]13CCCC[C@H]1[C@@H](C2)N(CC1CC1)CC3`, in assay [2], the Activity entry is “Agonist”.
At Mu-type opioid receptor [3], `Oc1ccc2c(c1)[C@@]13CCCC[C@H]1[C@@H](C2)N(CC1CCC1)CC3` [BUTORPHAN] showed an IC50 of 20 nM.
The compound `Oc1ccc2c(c1)[C@]13CCCCC1[C@H](C2)N(CC1CCC1)CC3` (single isomer, unassigned; (+)) yielded a Ki on Mu-type opioid receptor [4] of 60 nM.
